These results are taken from article PMC7774954, “Interactomic affinity profiling by holdup assay: Acetylation and distal residues impact the PDZome-binding specificity of PTEN phosphatase” (PLoS ONE, 2020).

Assay [1] concerns the target fRSK1, fluorescein-labelled RSK1 PBM peptide. Put plainly: fluorescence polarisation; direct: N-terminally fluorescein-labelled PBM peptide (tracer) with increasing amounts of MBP-PDZ; 384-well plates; triplicate; direct binding model (ProFit). On the technique in general: In fluorescence polarisation assays a small probe gives low polarisation when free and higher when bound to something large.

Assay [2] has as its target fpRSK1, fluorescein-labelled phosphorylated RSK1 PBM peptide. The assay is described as above.

The substance “GOPC-1, PDZ domain of GOPC (from UniProt Q9HD26 1-462) (domain or fragment)” had a Kd in assay [1] of 19.9 µM.

Substance “SNX27-1, PDZ domain of SNX27 (from UniProt Q96L92 1-541) (domain or fragment)” came in with a Kd in assay [2] of 10.1 µM.

The term Kd denotes the free concentration of one partner at which half of the binding sites on the other are occupied at equilibrium, for simple one-to-one binding. Read a low Kd as higher affinity.
